Data on one compound can be found in US20170038365A1, “SMALL MOLECULE INHIBITORS OF 8-OXOGUANINE DNA GLYCOSYLASE-1 (OGG1)” (OREGON HEALTH & SCIENCE UNIVERSITY, priority 2015, published 2017).

Amino acid sequences for entries named in this document (tags omitted).
UniProt O15527, whole entry: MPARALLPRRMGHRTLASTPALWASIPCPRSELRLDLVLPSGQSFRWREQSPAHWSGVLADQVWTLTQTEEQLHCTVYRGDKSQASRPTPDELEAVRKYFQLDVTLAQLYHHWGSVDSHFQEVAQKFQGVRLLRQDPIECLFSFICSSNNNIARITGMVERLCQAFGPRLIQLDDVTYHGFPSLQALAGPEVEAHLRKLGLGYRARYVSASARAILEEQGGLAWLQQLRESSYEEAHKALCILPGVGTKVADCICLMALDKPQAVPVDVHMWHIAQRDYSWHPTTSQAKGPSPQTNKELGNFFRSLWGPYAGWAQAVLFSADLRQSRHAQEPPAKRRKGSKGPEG

The target in this test is OGG1 (Homo sapiens, UniProt O15527). In words: fluorescence-based OGG1 activity assay (TAMRA/BHQ2 8-oxo-Gua substrate). The note with it: hydrazide forms vs parent acyl hydrazones.

Consider `NNC(=O)c1sc2ccccc2c1Cl`, for which the “OGG1 IC50 values compared with parent molecules” value is reported as “less than or equal to their parent molecules”.
